{"source": "patent US4668672A", "about": "“Feed compositions containing pyridylalkylhydrazides” (SmithKline Beckman Corporation, priority 1985, dated 1987)", "system": "swine ileal or cecal inoculum (filtrate of cannula material)", "experiment": "In vitro swine procedure (incubation of inoculum from cannulated swine, in vitro fistula procedure)", "parameters": "species or system swine (Yorksire barrow)", "conditions": "166.67 ppm; 5 hours at 37°; blank control = 100%", "data": [{"smiles": "COC(=O)NN=Cc1ccccn1", "values": [{"measurement": "LAC (L lactic acid)", "result": "99 % of Control Values"}]}]}
